Target: T1, Fructose-1,6-bisphosphatase 1 (Sus scrofa, UniProt P00636)
T1 sequence (P00636 whole entry): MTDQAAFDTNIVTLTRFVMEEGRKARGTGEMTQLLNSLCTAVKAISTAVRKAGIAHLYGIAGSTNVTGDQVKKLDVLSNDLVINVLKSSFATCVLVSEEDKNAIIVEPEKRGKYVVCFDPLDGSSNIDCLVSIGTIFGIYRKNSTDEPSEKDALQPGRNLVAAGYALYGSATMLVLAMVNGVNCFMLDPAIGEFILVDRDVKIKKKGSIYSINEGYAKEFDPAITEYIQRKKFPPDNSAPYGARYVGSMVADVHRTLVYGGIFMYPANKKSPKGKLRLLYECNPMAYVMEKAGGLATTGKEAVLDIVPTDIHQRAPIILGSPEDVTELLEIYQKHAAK
Experiment: Spectrophotometrical Assay: FBPase activity was measured spectrophotometrically by employing the coupling enzymes phosphoglucose isomerase and glucose-6-phosphate dehydrogenase.17 The reduction of NADP+ to NADPH was monitored directly at 340 nm. Specifically, buffer (0.2 M Tris, 4 mM MgCl2, 4 mM (NH4)2SO4, 0.1 EDTA, pH 7.5), 0.2 mM of NADP+, 1.4 units of phosphoglucose isomerase and 0.5 units of glucose-6-phosphate dehydrogenase, 0-300M of inhibitor and 9 ng of FBPase, were mixed in a cuvette and equilibrated at 30° C. 70M of FBP was then added to initiate the reaction. Absdata were collected as a function of time using a JASCO V-630 spectrophotometer.

CC(=O)C1=C(O)C=C2Oc3c(C(C)=O)c(O)c(C)c(O)c3C2(C)C1=O (stereo unspecified)
IC50: 930 µM

Reference: ChEMBL document CHEMBL3886560, “Dibenzofuran derivatives as inhibitors of fructose 1,6-bisphosphatase and methods of use thereof” (2016)
